Ab-95 light chain CDR variants: yeast mating affinities

Target peptide (SARS-CoV-2 spike, HR2 region): PDVDLGDISGINAS

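Variants in AAYL52 differ from the parent at up to three CDR positions; double and triple changes were sampled at random. Affinity was read by AlphaSeq, a pooled yeast mating assay with surface-displayed partners. Binding brings cells together so that they mate, and sequencing counts the barcode pairs among the diploids. Read counts were normalised to the haploid input and turned into Kd by a linear fit to BCL2-family pairs of known affinity, for each replicate. The assay was run in three technical replicates.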

The variants keep the heavy chain, the linker and the frameworks of Ab-95 (scFv order VH, the linker GGGGSGGGGSGGGGS, VL).
VH: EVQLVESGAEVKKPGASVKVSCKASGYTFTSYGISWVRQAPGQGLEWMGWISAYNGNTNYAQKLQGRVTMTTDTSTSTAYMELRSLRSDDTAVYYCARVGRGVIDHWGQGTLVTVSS
VL: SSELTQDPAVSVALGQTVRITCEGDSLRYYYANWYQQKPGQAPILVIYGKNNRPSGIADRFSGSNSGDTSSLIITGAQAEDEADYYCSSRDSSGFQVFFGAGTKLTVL

Each variant is given by its three light chain CDRs, as the data file delimits them; those of the parent are EGDSLRYYYAN, GKNNRPS, SSRDSSGFQVF.
The read-out is the apparent dissociation constant on a log10 scale (nM): the lower, the stronger.
The mean shown is taken over the replicates in which the pair was detected.
"n.d." means that the variant was in the library but no mating with the target was seen in that replicate; the authors take this as a sign of poor binding, and no number exists.
Three control strains display no target. For library AAYL52, 28% of the pairings with them gave a signal, with a median of 3.91 and one signal in twenty below 2.90, so weak values seen in few replicates may be background. For each scFv, signals with the empty controls are counted beside the result, with their mean in brackets.
Parent in this assay: reference entry 2.31, copy in this library 2.25.

CDR-L1	CDR-L2	CDR-L3	log10 Kd (nM) by replicate	log10 Kd (nM), mean	signal with controls
EGDALRYYYRN	GKNNRPI	SSRDSSGFQVF	4.00 2.61 2.22	2.94	3 of 9 (3.76)
EGKSLRYYYAN	GKNNRPS	SSRDSSGQQVQ	n.d. 3.52 n.d.	3.52	1 of 9 (3.35)
EGDSLRYYYAN	GKNNRPS	SSRDSSGFMLF	n.d. n.d. n.d.	n.d.	0 of 9
EGDSLRYYYAN	GKNNMGS	SSRDSSGFQVA	n.d. n.d. n.d.	n.d.	1 of 9 (3.27)
EGDSLRYYMAC	GKNNRPS	SDRDSSGFQVF	3.89 n.d. n.d.	3.89	0 of 9
GGDSKRYYYAN	GKNNRPS	SSRDSSGFQVP	n.d. n.d. n.d.	n.d.	1 of 9 (5.34)
EYDSLRYYYAN	GWNNMPS	SSRDSSGFQVF	4.42 4.38 3.58	4.13	1 of 9 (3.33)
EGDSLEYYYAN	GKNNRPQ	SSRDSSGFQVR	2.12 2.16 1.26	1.85	3 of 9 (3.83)
EGSSLRYYYAN	GKNNRPS	HSRDSHGFQVF	2.64 2.94 2.62	2.73	4 of 9 (3.89)
RGDSLRYYYAN	GKNNRPS	SSRDSIGFEVF	n.d. n.d. n.d.	n.d.	0 of 9
EGDSLRYYYSN	GKNWRPS	SSRDSSGFQVA	3.26 4.30 4.35	3.97	4 of 9 (4.13)
EGDSLRYRYAN	GKNNRPS	SSRDWCGFQVF	2.10 3.28 n.d.	2.69	2 of 9 (3.02)
ESDSLRYYYAN	GKLNRPS	SSRDSSGFQVF	5.48 n.d. 3.86	4.67	3 of 9 (4.19)
CLDSLRYYYAT	GKNNRPS	SSRDSSGFQVF	3.39 4.90 n.d.	4.15	5 of 9 (3.89)
EGDSLRCYYAN	GKNNRPS	SSRDYSGFQNF	5.09 n.d. n.d.	5.09	2 of 9 (3.36)
MTDSLWYYYAN	GKNNRPS	SSRDSSGFQVF	n.d. n.d. n.d.	n.d.	0 of 9
EGDSLRYYYAN	CKNNRPS	SSRDSDGAQVF	n.d. n.d. n.d.	n.d.	0 of 9
EGDSLRYYYAN	GKYMRPS	SSRDSSAFQVF	3.59 4.62 n.d.	4.10	2 of 9 (4.02)
FGDSLRYYYAA	GKNPRPS	SSRDSSGFQVF	4.47 3.58 3.35	3.80	6 of 9 (4.13)
EGDSLRYYYAN	GKNNRPA	SSRDSSYFQVN	3.02 2.64 3.06	2.91	1 of 9 (3.73)
EEDSLRYYYAN	GLNNRPS	SSRDWSGFQVF	2.91 n.d. 3.49	3.20	3 of 9 (2.87)
EEDRLRYYYAN	YKNNRPS	SSRDSSGFQVF	n.d. 3.53 n.d.	3.53	4 of 9 (3.96)
EGDYLRYHYAN	GKNNRPS	SSRDNSGFQVF	1.78 1.94 1.45	1.73	4 of 9 (4.81)
EGDSLRYYYAN	GKNNRPS	SSRPSSGFQVF	3.22 4.20 n.d.	3.71	3 of 9 (3.92)
EGDELRYYYAN	GKNNRPS	SSEDSSGCQVF	n.d. 5.56 n.d.	5.56	3 of 9 (3.24)
EDDSSRYYYAN	GKNNRPS	SSRDASGFQVF	3.33 4.06 2.62	3.34	6 of 9 (3.63)
EGFSLRYYYAN	GKNNRPS	SSRWSSGFMVF	3.27 3.38 n.d.	3.33	2 of 9 (3.54)
EGDMLRYYYAN	GKNNRPV	SSRDSSGFQFF	3.07 n.d. 1.55	2.31	0 of 9
EGDSLRYYYAG	GKNNRPS	SSRDWSGFQIF	n.d. 4.68 3.55	4.11	3 of 9 (4.25)
EGDSLRYYYEN	GKNNRPR	SSRDSHGFQVF	3.89 3.76 3.79	3.81	5 of 9 (3.91)
EGDSLRYYYAN	GHNNRPS	SSRDSSGFQVF	2.43 2.18 1.92	2.18	3 of 9 (3.58)
EGDSLRYYYAN	GENNRPS	SSRDNSGFQVW	1.96 2.41 2.07	2.15	4 of 9 (3.16)
EGDSLRMYYAA	GKNNRPS	SSRDSSGFNVF	n.d. 5.02 n.d.	5.02	2 of 9 (3.67)
EGDSLRYYYAN	GKPHRLS	SSRDSSGFQVF	4.49 4.24 n.d.	4.37	4 of 9 (3.84)
EGDSLRYYYAN	IKNNRPS	SSRDELGFQVF	n.d. n.d. n.d.	n.d.	3 of 9 (4.32)

Repeated from above, the 4 best binders with a signal in all replicates:

CDR-L1,CDR-L2,CDR-L3,log10 Kd (nM) by replicate,"log10 Kd (nM), mean",signal with controls
EGDYLRYHYAN,GKNNRPS,SSRDNSGFQVF,1.78 1.94 1.45,1.73,4 of 9 (4.81)
EGDSLEYYYAN,GKNNRPQ,SSRDSSGFQVR,2.12 2.16 1.26,1.85,3 of 9 (3.83)
EGDSLRYYYAN,GENNRPS,SSRDNSGFQVW,1.96 2.41 2.07,2.15,4 of 9 (3.16)
EGDSLRYYYAN,GHNNRPS,SSRDSSGFQVF,2.43 2.18 1.92,2.18,3 of 9 (3.58)

Values reported by Engelhart et al. 2022, doi:10.1038/s41597-022-01779-4 (FLAb copy).